Antibody variant affinities, Ab-95 light chain, assay 2

Values reported by Engelhart et al. 2022, doi:10.1038/s41597-022-01779-4 (FLAb copy).

All variants were tested on one target, the spike HR2 peptide PDVDLGDISGINAS (SARS-CoV-2).

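The starting antibody came from a phage panning campaign against this peptide. Variants in AAYL52 differ from the parent at up to three CDR positions; double and triple changes were sampled at random. The assay is AlphaSeq: two haploid yeast populations carry antibody and antigen on their surface. Pairs that bind mate more often; barcode pairs of the diploids are counted by sequencing. Scores were corrected for input abundance and mapped to Kd with protein pairs of known affinity run in the same pool. Each pool was mated in three replicate cultures.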

Parent scFv Ab-95: VH joined to VL by a 15-residue (Gly4Ser)3 linker. Changes lie in the light chain CDRs alone.
VH: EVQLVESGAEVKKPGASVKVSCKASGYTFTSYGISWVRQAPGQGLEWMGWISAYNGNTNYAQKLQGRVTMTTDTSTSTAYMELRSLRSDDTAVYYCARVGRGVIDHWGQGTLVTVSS
VL: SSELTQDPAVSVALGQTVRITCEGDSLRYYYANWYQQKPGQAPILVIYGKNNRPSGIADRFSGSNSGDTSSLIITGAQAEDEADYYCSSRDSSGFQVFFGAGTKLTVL

Sequences are complete VL domains.
Values are log10 of the apparent Kd in nM; lower means stronger binding.
Replicates are averaged; those with no signal do not enter the mean.
Where no diploid with the target was found in any replicate, the entry reads "not detected": below detection, most likely a poor binder, though not proof of it.
For reference, the parent read 2.31 as the reference entry and 2.25 as a member of this library.
Empty control strains, which show no peptide, gave a signal in 28% of pairings with library AAYL52; the median was 3.91 and 95% of these signals were weaker than 2.90. No background was subtracted.

| mean log10 Kd (nM) | replicates with signal | VL |
|---|---|---|
| 3.58 | 2/3 | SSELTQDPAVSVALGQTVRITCEGDSLRVYYANWYQQKPGQAPILVIYWKNNRPSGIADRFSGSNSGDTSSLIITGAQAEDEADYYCSSRDKSGFQVFFGAGTKLTVL |
| 4.38 | 1/3 | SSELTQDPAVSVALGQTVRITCEGDNLRYYYANWYQQKPGQAPILVIYGKNPRPSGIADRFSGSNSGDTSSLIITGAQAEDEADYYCSSRDSGGFQVFFGAGTKLTVL |
| 2.38 | 3/3 | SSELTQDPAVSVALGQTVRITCEGDSLRYYYSNWYQQKPGQAPILVIYGHNNRPSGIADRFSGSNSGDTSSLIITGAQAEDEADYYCSSRDSSGFQVVFGAGTKLTVL |
| 4.15 | 2/3 | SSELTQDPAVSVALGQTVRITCEGRSLRYYYANWYQQKPGQAPILVIYGCNNRPSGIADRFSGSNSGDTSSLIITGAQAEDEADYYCSSEDSSGFQVFFGAGTKLTVL |
| 2.83 | 2/3 | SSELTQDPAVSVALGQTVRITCEGDYLRYYYANWYQQKPGQAPILVIYGKNNRPKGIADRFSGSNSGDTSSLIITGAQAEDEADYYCSSRDSSGAQVFFGAGTKLTVL |
| 2.09 | 3/3 | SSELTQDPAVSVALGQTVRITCEGDYLRYYYVNWYQQKPGQAPILVIYGKNNRVSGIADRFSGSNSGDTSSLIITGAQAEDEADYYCSSRDSSGFQVFFGAGTKLTVL |
| 2.37 | 3/3 | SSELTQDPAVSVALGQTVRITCEGDSLRYYYNNWYQQKPGQAPILVIYGNNNRPSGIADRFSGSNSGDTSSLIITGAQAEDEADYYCSSRDSSGFQVFFGAGTKLTVL |
| 4.48 | 1/3 | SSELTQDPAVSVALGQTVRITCEGDSLIYYYANWYQQKPGQAPILVIYAKNNRPSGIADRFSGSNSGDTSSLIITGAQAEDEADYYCDSRDSSGFQVFFGAGTKLTVL |
| 3.35 | 1/3 | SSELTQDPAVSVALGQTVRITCELDSLRYYYANWYQQKPGQAPILVIYGKNNRPSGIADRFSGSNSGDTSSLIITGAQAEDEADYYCSSMDSNGFQVFFGAGTKLTVL |
| 2.62 | 3/3 | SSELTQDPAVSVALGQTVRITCEGDSLRYYMANWYQQKPGQAPILVIYGKNNKPSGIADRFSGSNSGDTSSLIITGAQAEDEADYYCSSRDSSGMQVFFGAGTKLTVL |
| not detected | 0/3 | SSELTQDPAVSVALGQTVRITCERDSLRYYYANWYQQKPGQAPILVIYGKKNRPSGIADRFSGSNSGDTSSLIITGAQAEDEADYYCSSRNSSGFQVFFGAGTKLTVL |
| 2.79 | 3/3 | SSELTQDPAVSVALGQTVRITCEGDSLRYYYANWYQQKPGQAPILVIYGKNARPSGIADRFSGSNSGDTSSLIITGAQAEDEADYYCSSRDGSGSQVFFGAGTKLTVL |
| 2.58 | 3/3 | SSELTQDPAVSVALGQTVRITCEGDSLRYYYANWYQQKPGQAPILVIYGKNNRGSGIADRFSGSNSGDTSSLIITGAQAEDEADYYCSARDSSGFQVFFGAGTKLTVL |
| 2.60 | 3/3 | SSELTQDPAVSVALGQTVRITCMGDSLRYYYANWYQQKPGQAPILVIYGDNNRPSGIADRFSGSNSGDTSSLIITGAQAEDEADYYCSSRDSSGFTVFFGAGTKLTVL |
| 3.09 | 2/3 | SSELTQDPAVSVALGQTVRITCEGKSLRYYYAQWYQQKPGQAPILVIYGKNNRPSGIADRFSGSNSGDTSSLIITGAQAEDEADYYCSSRDSSGFQVFFGAGTKLTVL |
| 3.60 | 2/3 | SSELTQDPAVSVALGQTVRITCEGDQLRYYYALWYQQKPGQAPILVIYGKNNRPSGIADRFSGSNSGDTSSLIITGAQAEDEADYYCSRRDSSGFQVFFGAGTKLTVL |
| 2.02 | 3/3 | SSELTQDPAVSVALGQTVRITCEGDSLPYYYANWYQQKPGQAPILVIYGKGNRPSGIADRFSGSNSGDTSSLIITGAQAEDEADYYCSSRDSHGFQVFFGAGTKLTVL |
| 4.47 | 1/3 | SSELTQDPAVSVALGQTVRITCEGDSLRYYYAMWYQQKPGQAPILVIYGKMNRPSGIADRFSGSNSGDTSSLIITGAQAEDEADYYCSSRDSSGMQVFFGAGTKLTVL |
| 3.71 | 3/3 | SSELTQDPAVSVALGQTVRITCEGDSLFYYYANWYQQKPGQAPILVIYGKNFRPFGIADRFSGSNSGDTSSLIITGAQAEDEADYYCSSRDSSGFQVFFGAGTKLTVL |

3 of these entries, quoted again:

VL	mean log10 Kd (nM)	replicates with signal
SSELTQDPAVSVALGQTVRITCEGDNLRYYYANWYQQKPGQAPILVIYGKNPRPSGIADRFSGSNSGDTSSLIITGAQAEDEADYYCSSRDSGGFQVFFGAGTKLTVL	4.38	1/3
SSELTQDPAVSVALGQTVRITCEGDSLRYYMANWYQQKPGQAPILVIYGKNNKPSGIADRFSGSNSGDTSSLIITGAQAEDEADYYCSSRDSSGMQVFFGAGTKLTVL	2.62	3/3
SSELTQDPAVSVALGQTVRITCEGDYLRYYYANWYQQKPGQAPILVIYGKNNRPKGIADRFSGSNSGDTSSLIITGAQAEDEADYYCSSRDSSGAQVFFGAGTKLTVL	2.83	2/3